Only some compounds are listed: those with a hit (about 16% of all), similar ones and a draw of the others.
TDP1 inh: blocks human tyrosyl-DNA phosphodiesterase 1; recombinant TDP1, AlphaScreen DNA substrate cleavage; AID 485290; Potency, µM (titrated, usually from 130 µM), hits mostly inhibitors; Q9NUW8; 350,000 compounds, 0.28% hits; also: nearly all actives have a fitted effect of over 40% in size
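Tdp1 1 nM final; 15 min RT w/ cpd; substrate 15 nM, 5 min; beads 10 ug/ml, 10 min; AlphaScreen read. Neg ctrl: no enzyme.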
uPA generation: inhibitors of cell surface uPA generation; cell surface uPA generation assay, qHTS; Potency, µM (titrated, usually from 38.3 µM), actives largely listed as inhibitors; 330,000 compounds, 0.31% hits; AID 540303; active = well fitted inhibition curve with a large enough effect; inconclusive = small, poorly fitted or top-dose-only effect; inactive = no such curve, though single readings can be large or run the other way; tested in mouse RAW 264.7 cells; also: nearly all actives have a fitted effect of over 55% in size
miR-21 reporter: miR-21 reporter, rising signal | HeLa miR-21 FLuc reporter, luciferase, 48 h | Potency, µM (top dose mostly 38.3 µM) | 340,000 tested, under 10 active | AID 2288; active = well fitted rising curve with a large enough effect; inconclusive = small, poorly fitted or top-dose-only effect; inactive = no such curve, though single readings can be large or run the other way;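 further: miR-21 action dims this reporter so a rising signal means less miR-21 action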
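HeLa miR-21-FLuc reporter line, endogenous miR-21; 2000 cells/well in DMEM/10% FBS; compound titration up to ~40uM final, 48 h, 37 degree Celsius; luciferase detection reagent, 15 min lysis, CCD luminescence.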
TDP1 cell noCPT: qHTS for Inhibitors of human tyrosyl-DNA phosphodiesterase 1 (TDP1): qHTS in cells in absence of CPT | Potency, µM (top dose mostly 46.2 µM), actives largely listed as inhibitors | 420,000 compounds, 15% hits | AID 686978, 2013 | DT40 Tdp1-/- hTDP1 cells, no CPT, ATP luminescence, 48 h; also: nearly all actives have a fitted effect of over 55% in size
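No-CPT arm: Tdp1-/-;hTDP1 DT40 cells (400/well) plus compounds, incubated ≥48 hr at 37 °C. Readout CellTiter-Glo luminescence.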
DT40 TDP1 CPT: growth inhibition of DT40 Tdp1-/-;hTDP1 cells with camptothecin (screen for TDP1 inhibitors). chicken DT40 Tdp1-/-;hTDP1 cells + 20 nM CPT, ATP luminescence, 48 h. Potency, µM (highest dose often 46.2 µM), most hits filed as inhibitors. 420,000 compounds, 12% hits; also: nearly all actives have a fitted effect of over 55% in size
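Chicken DT40 Tdp1-/- cells stably complemented with human TDP1 were seeded at 400 cells/well in medium containing 20 nM camptothecin, exposed to pin-transferred compounds, and grown at 37 °C for at least 48 hr. Viability was read as ATP luminescence.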
Numbers stand for hits; – = inactive; ? = inconclusive; · = not tested or not shown. Unless noted, calls follow the shape of the dose curve; as a rule, active = well fitted curve in the direction sought with a large enough effect; inconclusive = small, poorly fitted or top-dose-only effect, or another doubt; inactive = no such curve, though single readings can be large; an effect the other way counts as inactive or inconclusive.

SMILES | TDP1 inh | uPA generation | miR-21 reporter | TDP1 cell noCPT | DT40 TDP1 CPT
COc1ccc(C(=O)NNC(=O)Nc2ccc(C)cc2)cc1 | – | – | – | – | –
Cc1ccc(SC2=C(Sc3ccc(C)cc3)C(=O)c3ccccc3C2=O)cc1 | – | – | – | 1.03µM | 0.92µM
Cc1ccc(N2C(=O)c3ccccc3C2=O)cc1 | – | – | – | – | –
Cc1ccc(C(=O)NCCc2ccc(Cl)cc2)cc1-n1c(C)nc2cccnc21 | – | · | – | 23.1µM | ?
CCOc1ccc(CCNC(=O)c2cccc(-n3c(C)nc4cccnc43)c2)cc1 | – | · | ? | 16.4µM | 23.1µM
COCCNC(=O)c1cccc(-n2c(C)nc3cccnc32)c1 | – | · | – | – | –
Cc1nc2cccnc2n1-c1cccc(C(=O)NCCc2ccc(Cl)cc2)c1 | – | · | – | 18.4µM | ?
COc1ccc2[nH]c(C(O)C(O)c3nc4c(OC)c(OC)ccc4[nH]3)nc2c1OC (stereo not given) | · | · | · | 0.282µM | 1µM
COc1ccc(NC(=S)NCCCN2CCCC2)cc1 | – | – | – | – | –
CC(=NNC(=S)N1CCN(c2ccccn2)CC1)c1ccccn1 | · | – | · | 16.4µM | 18.4µM
CC(=NNC(=S)N1CCN(C2CCCCCC2)CC1)c1ccccn1 | · | – | · | 0.0366µM | 0.0651µM
C/C(=N\NC(=O)C1CCCN(S(=O)(=O)c2ccccc2)C1)c1ccncc1 (stereo not given) | – | – | – | – | –
CC(=NNC(=S)N1CC2CCC(CC2)C1)c1ccccn1 | · | · | · | 0.0184µM | 0.0082µM
O=C(NC(=S)N1CCN(C2CCCCC2)CC1)c1ccccc1 | – | – | – | – | –
C/C(=N\NC(=O)C1CCCN(S(=O)(=O)c2ccccc2)C1)c1ccccn1 (stereo not given) | – | – | – | 3.26µM | 5.8µM
COc1ccc(C(=O)O)cc1S(=O)(=O)Nc1ccccc1-c1ccccc1 | · | – | – | – | –
CCOC(=O)c1c(NC(=O)CN(C)C2CCN(C)CC2)sc(C(=O)Nc2ccccc2)c1C | – | – | – | ? | ?
O[C@@H]1CCN2Cc3ccccc3N=C12 | – | · | · | · | ·
O=C(CN(C(=O)c1csnn1)c1ccccc1F)NCc1ccc2c(c1)OCO2 | – | – | – | – | –
CC(=NNC(=S)N1CCCCCC1)c1cccc2cccnc12 | · | – | · | 0.0206µM | 0.0164µM
S=C(Nc1ccc2nc(-c3ccccn3)c(-c3ccccn3)nc2c1)N1CCCCC1 | – | – | – | – | –
S=C(NC1CCCC1)N1CCN(c2ccccn2)CC1 | – | – | – | ? | –
CC(=NNC(=S)N1CCN(c2ccccn2)CC1)c1nccs1 | · | – | · | 0.0164µM | 0.0146µM
COc1ccc(CC(NC(C)=O)C(=O)NC2CCN(C(=O)NCc3ccccc3)CC2)cc1 (stereo not given) | – | · | – | – | –
O=S(=O)(NCC(O)COCc1ccco1)c1cccs1 (stereo not given) | – | – | – | – | –
SMILES | TDP1 inh | uPA generation | miR-21 reporter | TDP1 cell noCPT | DT40 TDP1 CPT
CN1CCC(n2[nH]c(-c3ccccc3)c(Cc3ccccc3)c2=O)CC1 | · | – | · | ? | –
CCC(=O)N1CCCc2cc(S(=O)(=O)N3CCC(C(=O)Nc4cccc(Cl)c4)CC3)ccc21 | – | · | – | ? | ?
COc1ccc(CNC(=O)C2CCCN(S(=O)(=O)c3ccc4c(c3)C(C)(C)C(=O)N4C)C2)cc1 (stereo not given) | · | – | – | ? | –
O=C(C1CCC1)N1CCCc2cc(S(=O)(=O)N3CCN(c4ccccc4)CC3)ccc21 | – | – | – | ? | 18.4µM
COc1ccccc1CNC(=O)C1CCN(S(=O)(=O)c2ccc3c(c2)CCCN3C(C)=O)CC1 | – | · | – | ? | ?
CCC(=O)N1CCCc2cc(S(=O)(=O)N3CCC(C(=O)Nc4ccccc4CC)CC3)ccc21 | – | · | – | ? | 25.9µM
CN1C(=O)C(C)(C)c2cc(S(=O)(=O)N3CCCC(C(=O)NCc4ccccc4Cl)C3)ccc21 (stereo not given) | · | – | – | 23.1µM | ?
O=C(NCc1ccccc1Cl)C1CCN(S(=O)(=O)c2ccc3c(c2)CCCN3C(=O)C2CCC2)CC1 | – | · | – | 14.6µM | 14.6µM
CCCCC(=O)Nc1nc2ccc(C(=O)OC)cc2s1 | – | ? | – | ? | ?
CC(=O)N1CCCc2cc(S(=O)(=O)N3CCCC(C(=O)NCc4ccccc4Cl)C3)ccc21 (stereo not given) | – | – | – | 25.9µM | 20.6µM
CC(=O)N1CCCc2cc(S(=O)(=O)N3CCCC(C(=O)Nc4cccc(C)c4)C3)ccc21 (stereo not given) | – | – | – | – | –
CC(=O)N1CCCc2cc(S(=O)(=O)N3CCCC(C(=O)Nc4ccc(C)c(F)c4)C3)ccc21 (stereo not given) | – | · | – | 20.6µM | ?
CC(=O)N1CCCc2cc(S(=O)(=O)N3CCN(c4ccc(F)cc4)CC3)ccc21 | – | · | – | 16.4µM | 23.1µM
CC(=O)N1CCCc2cc(S(=O)(=O)N3CCN(c4cccc(C(F)(F)F)c4)CC3)ccc21 | – | · | ? | ? | ?
C[C@]12CCC3c4ccc(O)cc4CCC3C1CCC2=O (stereo not given in full) | – | · | · | – | –
CCOc1ccc(NC(=O)COC(=O)CC2CCCCC2)cc1 | – | – | · | – | –
COC(=O)C(CCSC)NC(=O)Cn1ncc2c([nH]c3ccccc32)c1=O (stereo not given) | – | · | – | – | –
COC(=O)/C(C#N)=C/c1c(Oc2cc(C)cc(C)c2)nc2ccccn2c1=O | · | – | – | ? | ?
CCOc1cc(N2CCOCC2)c(OCC)cc1NC(=O)c1ccco1 | – | · | – | 11.6µM | –
CCOc1cc(N2CCOCC2)c(OCC)cc1NC(=O)c1cnccn1 | – | – | · | 23.1µM | 20.6µM
CCOc1cc(N2CCOCC2)c(OCC)cc1NC(=O)c1ccc(OC)cc1 | – | – | – | 7.31µM | 6.51µM
CCOc1cc(N2CCOCC2)c(OCC)cc1NC(=O)c1ccc(NC(C)=O)cc1 | – | – | – | – | –
CC(C)COc1ccc(C(=O)Nc2ccc(N3CCOCC3)cc2N2CCOCC2)cc1 | – | – | – | 16.4µM | 18.4µM
CCOc1cc(-n2cnnn2)c(OCC)cc1NC(=O)c1cnccn1 | – | – | – | – | –
CCCCCOc1ccc(C(=O)Nc2ccc(N3CCOCC3)cc2N2CCOCC2)cc1 | – | – | · | – | –
CC(C)(C(N)=O)c1ccccc1 | – | – | – | – | –
CCOc1cc(N2CCOCC2)c(OCC)cc1NC(=O)C(NC(=O)c1ccco1)C(C)C (stereo not given) | – | – | – | 11.6µM | –
CCOc1cc(N2CCOCC2)c(OCC)cc1NC(=O)c1nc2nc(C)cc(C)n2n1 | – | – | – | 23.1µM | ?
CCOc1cc(N2CCOCC2)c(OCC)cc1NC(=O)c1ccc(OCc2c(C)noc2C)c(OC)c1 | – | – | – | 10.3µM | 14.6µM
